Values quoted from earlier work as cited in publication PMC7942396, “Drug Repurposing Screen for Compounds Inhibiting the Cytopathic Effect of SARS-CoV-2” (Frontiers in Pharmacology, 2021).

Conditions: human; Single dose 600 mg PO; ref Winstanley et al. (1987); cited from earlier work

CCN(CC)Cc1cc(Nc2ccnc3cc(Cl)ccc23)ccc1O.Cl.Cl.O.O [Amodiaquine dihydrochloride, reference compound]
Elimination T1/2: 5.2 ± 1.7 h
